US12576087B2, “Aryloxypiperidine pyrazole compounds as indoleamine 2,3-dioxygenase inhibitors” (Merck Sharp & Dohme LLC, priority 2018, dated 2026)
Where a name gives a salt, the structure may show the parent alone.

Protein sequences, listed by entry. Tags and fused reporters are not part of them.
UniProt P14902, whole entry: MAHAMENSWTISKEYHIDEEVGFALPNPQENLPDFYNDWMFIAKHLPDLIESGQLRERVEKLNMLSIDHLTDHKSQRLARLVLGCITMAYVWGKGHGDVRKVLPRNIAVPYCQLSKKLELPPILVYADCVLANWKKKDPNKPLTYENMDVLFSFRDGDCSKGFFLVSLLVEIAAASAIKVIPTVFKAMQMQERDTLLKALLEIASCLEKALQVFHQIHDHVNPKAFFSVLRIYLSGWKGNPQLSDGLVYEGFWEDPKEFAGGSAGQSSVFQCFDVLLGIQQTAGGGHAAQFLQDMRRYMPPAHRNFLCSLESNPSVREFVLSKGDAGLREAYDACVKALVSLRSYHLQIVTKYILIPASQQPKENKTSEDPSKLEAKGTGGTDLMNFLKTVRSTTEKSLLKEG

Biological target: IDO1 (Homo sapiens, UniProt P14902)
Assay: IDO1 Cellular Assay in HeLa Cells Stimulated with IFNγ
Assay type: cell-based
Conditions: HeLa cells stimulated with IFNγ 100 ng/mL, about 48 hours

Row | SMILES | EC50 [nM]
1 | C[C@@H]1C[C@H](Oc2ncccc2F)CCN1C(=O)Cn1nc(C(=O)N2CCC(O)CC2)c2c1C[C@H]1C[C@@H]21 [Example 58, 1-((2R,4R)-4-((3-fluoropyridin-2-yl)oxy)-2-methylpiperidin-1-yl)-2-((3bR,4aR)-3-(4-hydroxypiperidine-1-carbonyl)-3b,4,4a,5-tetrahydro-1H-cyclopropa[3,4]cyclopenta[1,2-c]pyrazol-1-yl)ethanone] | 62.5
2 | CCOC(=O)c1nn(CC(=O)N2CCC(Oc3ccccc3C(F)(F)F)CC2)c2c1CCCC2 [Example 59, ethyl 1-(2-oxo-2-(4-(2-(trifluoromethyl)phenoxy)piperidin-1-yl)ethyl)-4,5,6,7-tetrahydro-1H-indazole-3-carboxylate] | 51.4
3 | C[C@H]1C[C@H](Oc2ncccc2C(F)(F)F)CCN1C(=O)Cn1nc(C(=O)N2CCC(OCCO)CC2)c2c1C[C@H]1C[C@@H]21 [Example 60, 2-((3bR,4aR)-3-(4-(2-hydroxyethoxy)piperidine-1-carbonyl)-3b,4,4a,5-tetrahydro-1H-cyclopropa[3,4]cyclopenta[1,2-c]pyrazol-1-yl)-1-((2S,4R)-2-methyl-4-((3-(trifluoromethyl)pyridin-2-yl)oxy)piperidin-1-yl)ethanone] | 63.6
4 | C[C@@H]1C[C@H](Oc2ncccc2F)CCN1C(=O)Cn1nc(C(=O)N2CCC(OCCO)CC2)c2c1C[C@H]1C[C@@H]21 [Example 61, 1-((2R,4R)-4-((3-fluoropyridin-2-yl)oxy)-2-methylpiperidin-1-yl)-2-((3bR,4aR)-3-(4-(2-hydroxyethoxy)piperidine-1-carbonyl)-3b,4,4a,5-tetrahydro-1H-cyclopropa[3,4]cyclopenta[1,2-c]pyrazol-1-yl)ethanone, TFA] | 83.3
5 | CCOC(=O)c1nn(CC(=O)N2CCC(Oc3ncccc3Cl)CC23CC3)c2c1CCCC2 (stereo not drawn) [Example 64, ethyl 1-(2-(7-((3-chloropyridin-2-yl)oxy)-4-azaspiro[2.5]octan-4-yl)-2-oxoethyl)-4,5,6,7-tetrahydro-1H-indazole-3-carboxylate] | 460
6 | C[C@H]1C[C@H](Oc2ncccc2Cl)CCN1C(=O)Cn1nc(C(=O)N2CCC(OCCO)CC2)c2c1CCC2 [Example 66, 1-((2S,4R)-4-((3-chloropyridin-2-yl)oxy)-2-methylpiperidin-1-yl)-2-(3-(4-(2-hydroxyethoxy)piperidine-1-carbonyl)-5,6-dihydrocyclopenta[c]pyrazol-1(4H)-yl)ethanone, TFA] | 107
7 | C[C@H]1C[C@H](Oc2ncccc2C(F)(F)F)CCN1C(=O)Cn1nc(C(=O)N2CC[C@@H](O)[C@@H](F)C2)c2c1C[C@H]1C[C@@H]21 [Example 67, 2-((3bR,4aR)-3-((3S,4R)-3-fluoro-4-hydroxypiperidine-1-carbonyl)-3b,4,4a,5-tetrahydro-1H-cyclopropa[3,4]cyclopenta[1,2-c]pyrazol-1-yl)-1-((2S,4R)-2-methyl-4-((3-(trifluoromethyl)pyridin-2-yl)oxy)piperidin-1-yl)ethanone] | 110
8 | CCOC(=O)c1nn(CC(=O)N2CC[C@H](Oc3ncccc3Cl)C[C@@H]2C)c2c1[C@@H]1C[C@@H]1C2 [Example 68, (3bR,4aR)-ethyl 1-(2-((2S,4S)-4-((3-chloropyridin-2-yl)oxy)-2-methylpiperidin-1-yl)-2-oxoethyl)-3b,4,4a,5-tetrahydro-1H-cyclopropa[3,4]cyclopenta[1,2-c]pyrazole-3-carboxylate] | 132
9 | C[C@H]1C[C@H](Oc2ncccc2Cl)CCN1C(=O)Cn1nc(C(=O)N2CC[C@@H](O)[C@@H](F)C2)c2c1CCC2 [Example 70, 1-((2S,4R)-4-((3-chloropyridin-2-yl)oxy)-2-methylpiperidin-1-yl)-2-(3-((3S,4R)-3-fluoro-4-hydroxypiperidine-1-carbonyl)-5,6-dihydrocyclopenta[c]pyrazol-1(4H)-yl)ethanone, TFA] | 261
10 | CCOC(=O)c1nn(CC(=O)N2CC[C@@H](Oc3ncccc3F)C[C@H]2C)c2c1[C@@H]1C[C@@H]1C2 [Example 71, (3bR,4aR)-ethyl 1-(2-((2R,4R)-4-((3-fluoropyridin-2-yl)oxy)-2-methylpiperidin-1-yl)-2-oxoethyl)-3b,4,4a,5-tetrahydro-1H-cyclopropa[3,4]cyclopenta[1,2-c]pyrazole-3-carboxylate] | 192
11 | CCOC(=O)c1nn(CC(=O)N2CC[C@@H](Oc3ncccc3C(F)(F)F)C[C@@H]2C)c2c1[C@@H]1C[C@@H]1C2 [Example 72, (3bR,4aR)-ethyl 1-(2-((2S,4R)-2-methyl-4-((3-(trifluoromethyl)pyridin-2-yl)oxy)piperidin-1-yl)-2-oxoethyl)-3b,4,4a,5-tetrahydro-1H-cyclopropa[3,4]cyclopenta[1,2-c]pyrazole-3-carboxylate] | 299

Stronger by EC50, values ahead:

Row | EC50 [nM] | SMILES
12 | 21.4 | CCOC(=O)c1nn(CC(=O)N2CC[C@@H](Oc3ncccc3Cl)C[C@H]2C)c2c1[C@@H]1C[C@@H]1C2 [Example 73, (3bR,4aR)-ethyl 1-(2-((2R,4R)-4-((3-chloropyridin-2-yl)oxy)-2-methylpiperidin-1-yl)-2-oxoethyl)-3b,4,4a,5-tetrahydro-1H-cyclopropa[3,4]cyclopenta[1,2-c]pyrazole-3-carboxylate]
13 | 4.28 | C[C@@H]1C[C@H](Oc2ncccc2Cl)CCN1C(=O)Cn1nc(C(=O)N2CCC(OCCO)CC2)c2c1C[C@H]1C[C@@H]21 [Example 74, 1-((2R,4R)-4-((3-chloropyridin-2-yl)oxy)-2-methylpiperidin-1-yl)-2-((3bR,4aR)-3-(4-(2-hydroxyethoxy)piperidine-1-carbonyl)-3b,4,4a,5-tetrahydro-1H-cyclopropa[3,4]cyclopenta[1,2-c]pyrazol-1-yl)ethanone]
14 | 2.04 | C[C@@H]1C[C@H](Oc2ncccc2Cl)CCN1C(=O)Cn1nc(C(=O)N2CCC(O)CC2)c2c1C[C@H]1C[C@@H]21 [Example 75, 1-((2R,4R)-4-((3-chloropyridin-2-yl)oxy)-2-methylpiperidin-1-yl)-2-((3bR,4aR)-3-(4-hydroxypiperidine-1-carbonyl)-3b,4,4a,5-tetrahydro-1H-cyclopropa[3,4]cyclopenta[1,2-c]pyrazol-1-yl)ethanone]
15 | 3.69 | Cc1cc(F)ccc1OC1CCN(C(=O)Cn2nc(C(=O)N3CCC(OCCO)CC3)c3c2CCCC3)CC1 [Example 76, 1-[4-(4-fluoro-2-methyl-phenoxy)-1-piperidyl]-2-[3-[4-(2-hydroxyethoxy)piperidine-1-carbonyl]-4,5,6,7-tetrahydroindazol-1-yl]ethanone]
16 | 4.14 | Cc1cc(F)ccc1OC1CCN(C(=O)Cn2nc(C(=O)N3CCC(F)(CO)CC3)c3c2CCCC3)CC1 [Example 78, 2-[3-[4-fluoro-4-(hydroxymethyl)piperidine-1-carbonyl]-4,5,6,7-tetrahydroindazol-1-yl]-1-[4-(4-fluoro-2-methyl-phenoxy)-1-piperidyl]ethanone]
17 | 7.16 | Cc1cc(F)ccc1OC1CCN(C(=O)Cn2nc(C(=O)N3CCN(C(=O)CO)CC3)c3c2CCCC3)CC1 [Example 79, 1-[4-(4-fluoro-2-methyl-phenoxy)-1-piperidyl]-2-[3-[4-(2-hydroxyacetyl)piperazine-1-carbonyl]-4,5,6,7-tetrahydroindazol-1-yl]ethanone]
18 | 7.33 | Cc1cc(F)ccc1OC1CCN(C(=O)Cn2nc(C(=O)N3CCC(F)(CO)CC3)c3c2CCC3)CC1 [Example 80, 2-[3-[4-fluoro-4-(hydroxymethyl)piperidine-1-carbonyl]-5,6-dihydro-4H-cyclopenta[c]pyrazol-1-yl]-1-[4-(4-fluoro-2-methyl-phenoxy)-1-piperidyl]ethanone]
